Assay results: ChEMBL document CHEMBL1147729, “(+)-(2R,5S)-4-[4-cyano-3-(trifluoromethyl)phenyl]-2,5-dimethyl-N-[6-(trifluoromethyl)pyridin-3-yl]piperazine-1-carboxamide (YM580) as an orally potent and peripherally selective nonsteroidal androgen receptor antagonist” (J Med Chem, 2006)

Sequences of proteins named here, by UniProt entry; tags and fusion partners are left off. A change or cut given only in a name is not applied to a line headed by its entry.
UniProt P10275: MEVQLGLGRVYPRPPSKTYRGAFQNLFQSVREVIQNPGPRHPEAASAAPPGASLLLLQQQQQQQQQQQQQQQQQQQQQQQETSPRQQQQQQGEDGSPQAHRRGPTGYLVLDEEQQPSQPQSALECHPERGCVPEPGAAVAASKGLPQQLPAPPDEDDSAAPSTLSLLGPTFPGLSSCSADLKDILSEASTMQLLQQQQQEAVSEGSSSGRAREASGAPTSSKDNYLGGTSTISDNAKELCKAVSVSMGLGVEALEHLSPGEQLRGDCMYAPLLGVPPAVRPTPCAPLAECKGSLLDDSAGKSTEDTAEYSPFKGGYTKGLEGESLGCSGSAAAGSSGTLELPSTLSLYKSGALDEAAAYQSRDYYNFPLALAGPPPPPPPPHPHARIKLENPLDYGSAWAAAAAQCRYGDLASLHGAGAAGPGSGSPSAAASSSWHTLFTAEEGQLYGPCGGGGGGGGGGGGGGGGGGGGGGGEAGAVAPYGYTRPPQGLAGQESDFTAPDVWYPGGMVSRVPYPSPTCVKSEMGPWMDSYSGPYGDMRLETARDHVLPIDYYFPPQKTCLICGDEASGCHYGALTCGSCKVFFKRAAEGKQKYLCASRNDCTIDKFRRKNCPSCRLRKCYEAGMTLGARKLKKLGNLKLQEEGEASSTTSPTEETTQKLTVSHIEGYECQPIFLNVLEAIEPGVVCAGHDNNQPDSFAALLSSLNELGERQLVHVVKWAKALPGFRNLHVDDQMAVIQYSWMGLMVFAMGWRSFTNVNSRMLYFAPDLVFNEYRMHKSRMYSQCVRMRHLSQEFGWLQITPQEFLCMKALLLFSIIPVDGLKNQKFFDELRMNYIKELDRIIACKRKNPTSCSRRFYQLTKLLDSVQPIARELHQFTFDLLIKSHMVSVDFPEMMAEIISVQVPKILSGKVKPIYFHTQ

The molecules below were run against T1, Androgen receptor (Homo sapiens, UniProt P10275).

Row | Compound | IC50 [nM]
1 | C[C@@H]1CN(C(=O)Nc2ccc(C(F)(F)F)nc2)[C@@H](C)CN1c1ccc(C#N)c(C(F)(F)F)c1 | 1300
2 | C[C@@H]1CN(c2ccc(C#N)c(C(F)(F)F)c2)[C@@H](C)CN1C(=O)Nc1ccc(C(F)(F)F)nc1 (racemic) | 110
3 | COc1ccncc1NC(=O)N1C[C@H](C)N(c2ccc(C#N)c(C(F)(F)F)c2)C[C@H]1C (racemic) | 1200
4 | C[C@@H]1CN(c2ccc(C#N)c(C(F)(F)F)c2)[C@@H](C)CN1C(=O)Nc1ccncc1 (racemic) | 140
5 | CC1CN(c2ccc(C#N)c(C(F)(F)F)c2)C(C)CN1C(=O)Nc1ccc(C(F)(F)F)nc1 (racemic) | 210

What follows are molecules tested against T1, Androgen receptor (assay: Inhibition of human AR).

Row | Compound | Ki [nM]
6 | C[C@@H]1CN(c2ccc(C#N)c(C(F)(F)F)c2)[C@@H](C)CN1C(=O)Nc1ccc(C(F)(F)F)nc1 (racemic) | 4.6
